Sequences of proteins named here, by UniProt entry; tags and fusion partners are left off.
UniProt P31645, whole entry: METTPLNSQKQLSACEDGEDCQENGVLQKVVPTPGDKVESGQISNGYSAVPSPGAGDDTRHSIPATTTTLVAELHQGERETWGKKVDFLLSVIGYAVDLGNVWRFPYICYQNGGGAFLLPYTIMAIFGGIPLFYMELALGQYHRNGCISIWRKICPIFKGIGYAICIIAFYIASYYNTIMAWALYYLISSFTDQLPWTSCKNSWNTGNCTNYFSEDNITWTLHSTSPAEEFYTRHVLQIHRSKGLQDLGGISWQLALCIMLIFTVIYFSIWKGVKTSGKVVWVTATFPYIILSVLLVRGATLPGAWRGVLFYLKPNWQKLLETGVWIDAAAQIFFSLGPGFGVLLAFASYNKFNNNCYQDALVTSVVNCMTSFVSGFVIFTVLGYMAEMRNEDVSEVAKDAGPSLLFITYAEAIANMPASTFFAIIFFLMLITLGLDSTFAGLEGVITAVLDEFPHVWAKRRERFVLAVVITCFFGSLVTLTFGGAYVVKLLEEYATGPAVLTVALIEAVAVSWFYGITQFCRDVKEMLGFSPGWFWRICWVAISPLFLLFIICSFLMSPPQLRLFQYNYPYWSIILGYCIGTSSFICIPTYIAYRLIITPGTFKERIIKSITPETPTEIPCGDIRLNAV
UniProt P23975, whole entry: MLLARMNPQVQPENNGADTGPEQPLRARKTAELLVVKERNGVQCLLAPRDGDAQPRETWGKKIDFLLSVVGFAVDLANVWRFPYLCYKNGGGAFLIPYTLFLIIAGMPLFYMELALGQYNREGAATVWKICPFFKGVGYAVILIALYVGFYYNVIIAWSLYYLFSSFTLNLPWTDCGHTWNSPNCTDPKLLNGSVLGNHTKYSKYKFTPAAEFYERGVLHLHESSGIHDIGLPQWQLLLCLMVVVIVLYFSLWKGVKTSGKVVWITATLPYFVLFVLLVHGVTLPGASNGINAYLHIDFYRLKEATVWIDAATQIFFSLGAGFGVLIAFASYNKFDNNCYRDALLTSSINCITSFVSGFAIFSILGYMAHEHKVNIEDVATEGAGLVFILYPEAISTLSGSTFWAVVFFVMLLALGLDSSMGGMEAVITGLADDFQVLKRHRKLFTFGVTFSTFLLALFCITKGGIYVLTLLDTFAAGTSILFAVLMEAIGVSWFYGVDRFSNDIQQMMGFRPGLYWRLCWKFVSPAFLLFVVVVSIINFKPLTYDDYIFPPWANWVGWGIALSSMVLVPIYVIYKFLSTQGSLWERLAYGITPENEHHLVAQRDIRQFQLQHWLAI

In patent EP2351737A1, “3-Amino-1-arylpropyl indoles and aza-substituted indoles” (F. Hoffmann-La Roche AG, priority 2005, dated 2007):

How the values were obtained:
[1] = biological target: T1, Human Serotonin Transporter (hSERT) (Homo sapiens, UniProt P31645); assay: Human Serotonin Transporter (hSERT) Scintillation Proximity Assay (SPA), competition with [3H]-Citalopram; format: binding; conditions: membranes of HEK-293 cells expressing recombinant hSERT, Ki by Cheng-Prusoff
T1 construct: expressed in transfected cells; membranes prepared from them

[2] = biological target: Human Norepinephrine Transporter (hNET) (Homo sapiens, UniProt P23975); assay: Human Norepinephrine Transporter (hNET) Scintillation Proximity Assay (SPA), competition with [3H]-Nisoxetine; conditions: membranes of HEK-293 cells expressing recombinant hNET, Ki by Cheng-Prusoff

| Substance | pKi SERT [1] | pKi NET [2] |
| --- | --- | --- |
| 7-Chloro-5-(3-methylamino-1-phenyl-propyl)-1H-indole-3-carbonitrile [Compound 124] | 7.26 | 6.57 |
| 7-Fluoro-5-(3-methylamino-1-phenyl-propyl)-1H-indole-3-carbonitrile [Compound 125] | 7.85 | 6.49 |
